Biological target: T1, sigma-1 receptor (S1R) (Cavia porcellus, UniProt Q60492)
T1 construct: Guinea pig liver tissue preparation abundantly contains sigma-1 receptor as compared to other tissues; from tissue; host or cells: guinea pig liver membrane homogenate
Test: Saturation binding of [3H]-(+)-pentazocine in guinea pig liver membrane preparations
Conditions: guinea pig liver membranes, 37 °C
Experimental: Male Wistar-Harlan rats (n = 10, 225–250 g) and guinea pigs (n = 10, 350–400 g) were handled according to the European Communities Council Directive (2010/63/EU) and to the Regulations on Animal Protection (40/2013. (II. 14.) Korm. r.) of Hungary. The researchers did the best effort to minimize the number of animals and their suffering. Preparation of guinea pig and rat liver homogenates was performed according to a previous method with a slight modification. Euthanized male guinea pig and rats were killed by decapitation, and their livers were removed rapidly. […] The protein content of the samples was measured by the Bradford method and samples were diluted in assay buffer to obtain the appropriate amount for the assay.
The incubation was terminated by diluting the samples with an ice-cold wash buffer (50 mM of Tris–HCl, pH 8.0), followed by repeated washing and rapid filtration through Whatman GF/B glass fiber filters (Whatman Ltd., Maidstone, UK) presoaked with 0.1% polyethyleneimine. […] Filters were air-dried and immersed into Ultima Gold MV scintillation cocktail, and then radioactivity was measured with a TRI-CARB 2100TR liquid scintillation analyzer (Packard, Perkin Elmer, Waltham, MA, USA).

Protein sequences, listed by entry. Tags and fused reporters are not part of them. Lines headed by an entry give the natural chain unless they say otherwise; changes in a name come on top.
UniProt Q60492, whole entry: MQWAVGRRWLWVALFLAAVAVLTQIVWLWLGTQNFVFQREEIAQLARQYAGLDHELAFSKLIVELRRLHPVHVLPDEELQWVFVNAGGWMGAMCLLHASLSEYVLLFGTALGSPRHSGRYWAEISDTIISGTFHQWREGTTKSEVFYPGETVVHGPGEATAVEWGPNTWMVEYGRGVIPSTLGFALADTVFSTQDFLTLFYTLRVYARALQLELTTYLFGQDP

## CC(C)=CCN1CC[C@]2(C)c3cc(O)ccc3C[C@H]1[C@H]2C [[^3H]-(+)-pentazocine]
  maximal density of binding sites (Bmax): 1072 fmol/mg protein
Listed as [3H]-(+)-pentazocine
  maximal density of binding sites (Bmax): 1072 ± 20 fmol/mg protein
